Experiments:
mice = experiment: Analgesic testing by tail flick test in mice; details: dose 10 mg/kg
μ-opiate receptor = μ-opiate receptor (Homo sapiens, UniProt P35372); experiment: Binding to μ-opiate receptor; details: for Ki: read-out: μ Ki; for μ % inhibition [1 μM]: c=1 μM
ORL1 receptor = ORL1 receptor (Homo sapiens, UniProt P41146); experiment: ORL1 receptor binding assay with 3H-nociceptin/Orphanin FQ; details: membranes of recombinant CHO-ORL1 cells; for Ki: read-out: ORL1 Ki, 0.5 nM 3H-nociceptin/Orphanin FQ; for ORL1 % inhibition [1 μM]: c=1 μM

By UniProt entry, the sequences of proteins in these tests, tags left out. Where a name states a change or a piece, a line headed by the entry shows the natural chain unless it says otherwise.
UniProt P35372, whole entry, looked up: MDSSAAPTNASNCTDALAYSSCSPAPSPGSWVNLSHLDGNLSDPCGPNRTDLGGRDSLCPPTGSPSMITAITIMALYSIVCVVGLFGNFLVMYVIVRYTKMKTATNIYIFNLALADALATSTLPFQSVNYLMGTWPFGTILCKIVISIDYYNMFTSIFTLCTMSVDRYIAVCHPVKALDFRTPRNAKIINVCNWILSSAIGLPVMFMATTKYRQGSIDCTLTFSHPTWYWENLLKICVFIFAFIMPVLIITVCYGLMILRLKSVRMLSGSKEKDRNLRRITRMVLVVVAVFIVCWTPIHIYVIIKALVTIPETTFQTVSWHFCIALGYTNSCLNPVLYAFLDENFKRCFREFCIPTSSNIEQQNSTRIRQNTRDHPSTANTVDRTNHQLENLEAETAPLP
UniProt P41146: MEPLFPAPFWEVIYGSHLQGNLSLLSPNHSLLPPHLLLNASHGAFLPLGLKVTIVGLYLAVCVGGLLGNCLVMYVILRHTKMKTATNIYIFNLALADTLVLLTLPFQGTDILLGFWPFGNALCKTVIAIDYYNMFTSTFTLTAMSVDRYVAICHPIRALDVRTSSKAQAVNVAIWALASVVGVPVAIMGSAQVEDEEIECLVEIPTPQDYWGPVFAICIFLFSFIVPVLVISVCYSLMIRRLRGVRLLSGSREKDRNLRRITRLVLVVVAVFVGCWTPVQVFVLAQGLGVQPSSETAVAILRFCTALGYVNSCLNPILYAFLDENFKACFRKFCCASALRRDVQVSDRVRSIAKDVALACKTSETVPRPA

SMILES | Tail flick (mouse, i.v.) % inhibition (dose [mg/kg]) (mice) | Ki (μ-opiate receptor) | Ki (ORL1 receptor) | μ % inhibition [1 μM] (μ-opiate receptor) | ORL1 % inhibition [1 μM] (ORL1 receptor)
CC(NC(=O)Cc1c[nH]c2ccccc12)C(=O)NC1CCC(c2ccccc2)(N(C)C)CC1.Cl (single isomer, unassigned) | 60% (10) | – | – | – | –
CC(C)CC(NC(=O)Cc1c[nH]c2ccccc12)C(=O)NC1CCC(c2ccccc2)(N(C)C)CC1 (stereo not shown) | – | 3.2 nM | 13 nM | – | –
CC(NC(=O)Cc1c[nH]c2ccccc12)C(=O)NC1CCC(c2ccccc2)(N(C)C)CC1 (single isomer, unassigned) | – | 12.4 nM | 31 nM | – | –
CC(C)CC(NC(=O)Cc1c[nH]c2ccccc12)C(=O)NC1CCC(c2ccccc2)(N(C)C)CC1.Cl (stereo not shown) | 69% (10) | – | – | 71% | 43%
CC(NC(=O)Cc1c[nH]c2ccccc12)C(=O)NC1CCC(c2ccccc2)(N(C)C)CC1.Cl (stereo not shown) | – | – | – | 50% | 32%

Source: patent publication US7348354B2, “Cyclohexylurea compounds” (dated 2008)
